Test results: article PMC4774891 (Pharmaceutical research, 2015)

Tested on: A431 cells
Assay: Clonogenic
Format: cell-based, human
Conditions: Gef 0.5, 2 μM; Gef-SD 2 μM; 48 h treatment, 2 weeks growth

Compound: COc1cc2ncnc(Nc3ccc(F)c(Cl)c3)c2cc1OCCCN1CCOCC1 [Gef free drug, Gefitinib]
- effect on number of colonies and colony sizes: significant reduction in the number of colonies and colony sizes
